From US6077872A (priority 1998, dated 2000)

Columns and labels:
[1] = tested on: ovariectomized rats with osteoporosis; conditions: 200 mg element calcium/kg/d; model-control 11.3 ± 4.7
in vivo = conditions: dog, po, 200 mg/kg

## O=C(O)[C@H](O)[C@@H](O)CO [calcium L-threonate]
Preschool children; 2 bags/day of 150 mg element calcium, 3 months
  extent of BMDs' increase: 23.22%
Preschool children; in vivo
  extent of BMDs' increase relative to the calcium carbonate group: about twice
[1]
  S (work to yield or break femur): 23.2
In vivo
  AUC: 232 µg·h/mL
